Consider three proteins from patent US20090162336A1 (published 2009).

Series [1] concerns the molecule itself. The series is described as follows: self-assembly, negative stain electron microscopy.
Series [2] concerns the molecule itself. The series is described as follows: SDS gel without DTT, chemical cross-linking, gel filtration. (In general: In gel filtration, larger molecules generally elute earlier.)

B1: construct K11 (other, human)
chain: MQTAPVPMPDLKNVKSKIGSTENLKHQPGGGKVQIINKKLDLSNVQSKCGSKDNIKHVPGGGSVQIVYKPVDLSKVTSKCGSLGNIHHKPGGGQVEVKSEKLDFKDRVQSKIGSLDNITHVPGGGNKKIETHKLTFRENAKAKTDHGAEIVY
notes: range 244-394; 152 residues, four repeats
Regarding B1, the binding result in series [1] is listed as “binds”.

B2: construct K12 (other, human)
chain: MQTAPVPMPDLKNVKSKIGSTENLKHQPGGGKVQIVYKPVDLSKVTSKCGSLGNIHHKPGGGQVEVKSEKLDFKDRVQSKIGSLDNITHVPGGGNKKIETHKLTFRENAKAKTDHGAEIVY
notes: range 244-274;range 306-394; 121 residues; Q244-Y394 without the second repeat V275-S305
B2: the binding result in series [2] is given as “binds”.

B3: K12 dimers cross-linked with PDM (other, human)
chain: MQTAPVPMPDLKNVKSKIGSTENLKHQPGGGKVQIVYKPVDLSKVTSKCGSLGNIHHKPGGGQVEVKSEKLDFKDRVQSKIGSLDNITHVPGGGNKKIETHKLTFRENAKAKTDHGAEIVY
modifications: Cys322 to Cys322 cross-linked by PDM
notes: range 244-274;range 306-394; also called K12 PDM dimer; PDM dimers
Regarding B3, the binding result in series [1] is given as “binds”.
